scFv variants of Ab-14 (heavy chain) against a SARS-CoV-2 spike peptide

Target peptide (SARS-CoV-2 spike, HR2 region): PDVDLGDISGINAS

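Phage display of a naive human antibody library on the peptide gave the parent. In library AAYL49, one, two or three CDR residues were substituted; doubles and triples were drawn at random. The scFvs were displayed on barcoded MATa yeast, the peptide on MATalpha yeast. The frequency of each diploid, read from paired DNA barcodes, reflects how well the two displayed proteins bind. A regression on co-assayed BCL2-family reference pairs converts the normalised counts of each replicate to an apparent Kd. Each pool was mated in three replicate cultures.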

The variants keep the light chain, the linker and the frameworks of Ab-14 (scFv order VH, three GGGGS repeats, VL).
VH: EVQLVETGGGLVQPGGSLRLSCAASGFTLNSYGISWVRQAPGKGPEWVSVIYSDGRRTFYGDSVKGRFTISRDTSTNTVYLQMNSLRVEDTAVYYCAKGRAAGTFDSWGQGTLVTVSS
VL: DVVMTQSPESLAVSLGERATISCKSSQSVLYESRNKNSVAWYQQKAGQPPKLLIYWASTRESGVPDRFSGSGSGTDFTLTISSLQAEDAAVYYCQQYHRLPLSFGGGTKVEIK

The parent's heavy chain CDRs are GFTLNSYGIS, VIYSDGRRTFYGDSVK, GRAAGTFDS; each variant's own CDRs replace them letter for letter.
Values are log10 of the apparent Kd in nM; lower means stronger binding.
The mean shown is taken over the replicates in which the pair was detected.
"no signal" marks a missing value. The strain was present, yet no cells mated with the target were sequenced in any replicate, which points to weak or no binding.

| CDR-H1 | CDR-H2 | CDR-H3 | mean log10 Kd (nM) | replicates with signal |
|---|---|---|---|---|
| GFTLNSIGIS | VIYSDGKRTFYGDSVK | ARAAGTFDS | no signal | 0/3 |
| GFTLNSYGIW | VIYSDGQRTFLGDSVK | GRAAGTFDS | 5.05 | 1/3 |
| GFTLNSEGIS | VIYSDGRRTFYGDSVK | GRAAGDFDS | 3.80 | 1/3 |
| GFTLNSYGIS | VIISDGRRPFYGDSVK | GRAAGTFDS | 3.64 | 1/3 |
| GFTLNDIGIS | VIYSDGRRTFYGDHVK | GRAAGTFDS | 2.73 | 3/3 |
| GFTLNSTGIS | VIYSDGRRTGYGDSVK | GRAATTFDS | 4.97 | 3/3 |
| GFTLNSYTVS | VIYPDGRRTFYGDSVK | GRAAGTFDS | no signal | 0/3 |
| GFTLNSYGIS | VITSDGRRTFYGDSVK | YRAAGFFDS | 3.22 | 1/3 |
| GFTLNSYRIS | VIYSDGRRTFYGDFVK | GRAAGTFSS | no signal | 0/3 |
| GFTLHSYGFS | VIYSDGRRTFYGDSVM | GRAAGTFDS | 3.30 | 2/3 |
| GFTGNSYGIS | VIYSDGRRTLYGDSVK | GRAAGTFKS | no signal | 0/3 |
| GFTLNSYGES | VPYSDGRRTFYGDSVK | GRAAGTFDS | no signal | 0/3 |
| GFTLNYYGIS | VIYSDGRRTFYGQSVK | GRAAGTFTS | 1.68 | 2/3 |
| GFTLNSYGIG | IIYSDGRRTFYGDSVK | GRSAGTFDS | no signal | 0/3 |
| GFTLNSYGIS | VIYSDGRRTFVGDSVG | GRAAGRFDS | no signal | 0/3 |
| GFTLNSYGPS | AIYSDGRRTFYGDSVK | GRAHGTFDS | 5.17 | 1/3 |
| IFTLNSYGIS | VIYADGRRTFQGDSVK | GRAAGTFDS | no signal | 0/3 |
| GFTLNSYVIS | VIYSDGRRTFYGDSMK | GRAPGTFDS | 5.03 | 2/3 |
| GFTLNSYGIS | VIYTDGRRTFFGDSVK | LRAAGTFDS | 4.72 | 1/3 |
| GFTLNSYGIS | VIYMDGRRTFYGDSVE | GTAAGTFDS | no signal | 0/3 |
| RFTLNSYGIS | AIYSDGRPTFYGDSVK | GRAAGTFDS | 4.78 | 2/3 |
| LFTLNSYTIS | VIYSDGRRTIYGDSVK | GRAAGTFDS | no signal | 0/3 |
| GFTLNSTRIS | VIYSDGRRTFYGDSVK | GRAAGTFDS | 4.37 | 2/3 |
| IFTLNSYGIS | VIYQDGRSTFYGDSVK | GRAAGTFDS | 5.01 | 3/3 |
| GFTLNSYGIY | VIYSDGRRTFYGDSVK | GRAAGTFFS | 4.25 | 1/3 |
| GFHLNSYGIS | VIYSDGRRTAYGDSVK | GRAAGTFDS | 0.20 | 3/3 |
| GFTLNSYGIS | VRYSDGRRTFYLDSVK | GWAAGTFDS | no signal | 0/3 |
| GFTLNGYGIS | VDYSDGSRTFYGDSVK | GRAAGTFDS | no signal | 0/3 |
| GFTLNDYGIP | VIYSDGRRTFYGDSVK | GRAAGEFDS | no signal | 0/3 |
| GFTLNSYGIS | PIYSDGRRTFYGDSVK | GSAAGTFPS | no signal | 0/3 |
| MFTMNSYGIM | VIYSDGRRTFYGDSVK | GRAAGTFDS | no signal | 0/3 |
| GFTLNSYGIS | VIYSDGRRRFQGDSVK | GRAAGTFDS | 4.55 | 1/3 |
| GFTLNSYCIS | VIYSCGRRTFCGDSVK | GRAAGTFDS | no signal | 0/3 |
| SFTLNSNWIS | VIYSDGRRTFYGDSVK | GRAAGTFDS | 2.86 | 1/3 |
| GFTLNSYGIS | VIYSQGRRTFYGDWVK | GRAAGTFDT | no signal | 0/3 |
| GFTLNSYGMS | VIYSDGRRTFYGDSVK | IRAAGTDDS | 5.49 | 1/3 |
| GFWLGSYGIS | VIYSDGRRTFYGDSVK | GRAAQTFDS | no signal | 0/3 |
| GFTLSSFGNS | VIYSDGRRTFYGDSVK | GRAAGTFDS | no signal | 0/3 |
| GFTLNSYGIS | VNYSDGRRTFYGDFVK | GRAAGSFDS | no signal | 0/3 |
| GFTLNSYGIS | VIYSDGRRFFYTDSVK | NRAAGTFDS | 1.85 | 3/3 |
| GSTLSSYGIS | VIYSDGRRTFYGDSVK | PRAAGTFDS | no signal | 0/3 |
| GFTLNSYGIV | VINSDGRRTFYGDSVK | NRAAGTFDS | no signal | 0/3 |
| GFTGNSYGIS | VIYSDGRRTFYGDSVK | GNAAGTHDS | 3.84 | 2/3 |
| GFTLNSYGIS | VIYSDGRRTFYGNSVK | GIAANTFDS | 3.07 | 1/3 |
| GFHLNSDLIS | VIYSDGRRTFYGDSVK | GRAAGTFDS | 4.10 | 2/3 |
| NFTLNSYGIS | VIYSDNRRTFYGDSVK | GRAAGTFDS | 4.41 | 2/3 |
| GFTLNSYGIS | VIYSDGTRTFYGDSVK | GRASGTEDS | no signal | 0/3 |
| GFTLNSYGIS | VIYSDGRRTFYDDSQK | GRAAGQFDS | no signal | 0/3 |
| GFTLNSYGIS | VIYSDGARTFHGDSVK | GRAANTFDS | no signal | 0/3 |
| GFTLNSYGIS | VIYSDGRHTFYDDSVK | GRAFGTFDS | 1.41 | 3/3 |
| GFTLNSYGIR | VIYSDGRKTFYGDSKK | GRAAGTFDS | 4.70 | 1/3 |
| KFTLNSYGIS | VIYVDGRRTFYGDSVK | GRAEGTFDS | 3.72 | 1/3 |
| QFTLNSYGIS | VIYSDGRRTFYGDSLK | GCAAGTFDS | 3.50 | 1/3 |
| GDTLNSYGIS | VIYSDGRRTFYRDSVK | GRAAGTDDS | 2.36 | 3/3 |
| GFTLNSYGIS | VIYSDLRRTFHGDSVK | GRAAGTFGS | no signal | 0/3 |
| GFTLNSYGIK | VIYSDGRRMFYRDSVK | GRAAGTFDS | no signal | 0/3 |
| GFTLNSYGHS | VIYSDERRTFWGDSVK | GRAAGTFDS | no signal | 0/3 |
| GFTLNYYGIS | VIYNDGRRTFYGFSVK | GRAAGTFDS | no signal | 0/3 |
| GFTLNAYGIS | VIYSDGRRTFYGDAVK | GRADGTFDS | 0.91 | 3/3 |
| GFTLNSYGIS | VIYCDGRRTFYLDSMK | GRAAGTFDS | no signal | 0/3 |
| GFTINSYGIS | VVYSDSRRTFYGDSVK | GRAAGTFDS | 4.43 | 2/3 |
| GFTLNSYEIS | VQYSDGRRTFYGDSVK | GRAAGWFDS | 3.03 | 2/3 |
| GFTLNSYGIS | AIYSDGRNTFYGDDVK | GRAAGTFDS | 2.95 | 1/3 |
| GFTLNSYGIS | VPYRDGRRTFYGDKVK | GRAAGTFDS | no signal | 0/3 |
| GFTLASYGIS | VIHSDGRRTFYGDSVK | GRAAGTFDS | 5.52 | 1/3 |
| GKTKNSYGIS | VIYSDGRRTFYGDSHK | GRAAGTFDS | 5.02 | 2/3 |
| GFTLNSYGIS | VIYSDGIRTFYGDSVK | GRGAGRFDS | 1.82 | 3/3 |
| GFTLASYGIG | VIYSDGRRTFYADSVK | GRAAGTFDS | no signal | 0/3 |
| GFTLNSYGIS | VIYSDGRRTFYRDSVK | GRATGTFCS | no signal | 0/3 |
| GFTLNSNGIS | VIYSDGRRTFFGDSVK | GRAAKTFDS | 5.19 | 2/3 |
| GFTLNSYGIS | VIYSDGRRTFYGDHVK | GRTAGTFDS | 0.93 | 3/3 |
| GFTLNSYGIS | VIYLDGRRTFYKDSVK | GRAAGTHDS | 6.06 | 1/3 |
| YFTLNSYGIS | VIYSDGRRTFYGDSVN | GRAHGTFDS | no signal | 0/3 |

A selection of 5 entries from above:

CDR-H1,CDR-H2,CDR-H3,mean log10 Kd (nM),replicates with signal
GFTLNSYGIS,VIYCDGRRTFYLDSMK,GRAAGTFDS,no signal,0/3
GFTLNSYGIS,VRYSDGRRTFYLDSVK,GWAAGTFDS,no signal,0/3
GFTLNYYGIS,VIYNDGRRTFYGFSVK,GRAAGTFDS,no signal,0/3
GFTLNSYGIS,VIYSDGARTFHGDSVK,GRAANTFDS,no signal,0/3
GFTLNSYVIS,VIYSDGRRTFYGDSMK,GRAPGTFDS,5.03,2/3

Parent in this assay: reference entry 0.65, copy in this library 4.11 (one replicate of three).
Background: pairings of library AAYL49 with three empty control strains gave a value in 15% of cases (median 4.06, 5th percentile 2.83). Values in that range, when seen in few replicates, are hard to tell from nonspecific mating.

The measurements come from Engelhart et al. 2022 (doi:10.1038/s41597-022-01779-4) through the FLAb antibody collection.